# scFv variants of Ab-14 (light chain) against a SARS-CoV-2 spike peptide

From the AlphaSeq antibody data of Engelhart et al. 2022 (doi:10.1038/s41597-022-01779-4), copy in the FLAb collection.

Target peptide (SARS-CoV-2 spike, HR2 region): PDVDLGDISGINAS

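Library AAYL50 holds single substitutions and randomly drawn double and triple substitutions in the CDRs. AlphaSeq pools MATa yeast showing the antibodies with MATalpha yeast showing the peptide. After mating in shaken culture at 30 °C for 16 h, diploids were selected and their barcode pairs sequenced. Scores were corrected for input abundance and mapped to Kd with protein pairs of known affinity run in the same pool. The assay was run in three technical replicates.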

Each scFv is VH, three GGGGS repeats, VL, as in the parent Ab-14, and differs from it in the CDRs of the light chain only.
VH: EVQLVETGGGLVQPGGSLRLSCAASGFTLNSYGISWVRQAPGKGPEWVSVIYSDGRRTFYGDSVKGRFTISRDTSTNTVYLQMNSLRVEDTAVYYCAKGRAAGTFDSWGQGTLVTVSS
VL: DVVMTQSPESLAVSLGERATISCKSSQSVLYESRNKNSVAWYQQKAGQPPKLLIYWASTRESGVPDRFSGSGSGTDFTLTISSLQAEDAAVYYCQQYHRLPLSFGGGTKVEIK

Each variant is given by its three light chain CDRs, as the data file delimits them; those of the parent are KSSQSVLYESRNKNSVA, WASTRES, QQYHRLPLS.
Every variant below is changed at S25 of the VL (sequential numbering).
Values are log10 of the apparent Kd in nM; lower means stronger binding.
A mean of the replicates is given; it leaves out those without a signal.
"nd" marks a missing value. The strain was present, yet no cells mated with the target were sequenced in that replicate, which points to weak or no binding.
The list is sorted by this average, lowest first, undetected variants last.

For KMPQSVLYESRNKNSVA | WANTRES | QQYHRLPLS, the assay gave -0.33, 0.03, -0.15 (mean -0.15; controls 2 of 9).
For KISQSVLYESLNKNSVA | WASTRES | QQYMRLPLS, the assay gave 0.12, 0.34, 0.24 (mean 0.24; controls 4 of 9).
For KNSQSVLYESRNKNSVA | WASTRVN | QQYHRLPLS, the assay gave 0.24, 0.56, 0.39 (mean 0.40; controls 1 of 9).
For KQAQSVLYESRNKNSIA | WASTRES | QQYHRLPLS, the assay gave 0.51, 0.61, 0.56 (mean 0.56; controls 2 of 9).
For KTSQSVLYESRNKNSVA | WASDRES | QQYHRLPLS, the assay gave 0.71, 0.82, 0.78 (mean 0.77; controls 2 of 9).
For KWSQSVLYESRNKNSVA | YASTRES | QQYHRLPLS, the assay gave 0.88, 0.83, 0.64 (mean 0.78; controls 0 of 9).
For KISQSVLYESRNKNSVA | WASIAES | QQYHRLPLS, the assay gave 0.56, 1.20, 1.06 (mean 0.94; controls 0 of 9).
For KASQSVLYESRNKYSVA | WASTRES | QQYHRLPDS, the assay gave 0.89, 1.06, 0.99 (mean 0.98; controls 5 of 9).
For KISQSVLYESRNKNSVA | WASTRCS | QQYHRLPFS, the assay gave 1.01, 1.05, 1.10 (mean 1.06; controls 2 of 9).
For KASQSVHYESRNKNSVA | CASTRES | QQYHRLPLS, the assay gave 1.06, 1.20, 1.10 (mean 1.12; controls 2 of 9).
For KWSQSVLYESRNENSVA | WAKTRES | QQYHRLPLS, the assay gave 1.17, 1.41, 1.29 (mean 1.29; controls 1 of 9).
For KPCQSVLTESRNKNSVA | WASTRES | QQYHRLPLS, the assay gave 1.43, 1.44, 1.50 (mean 1.46; controls 1 of 9).
For KISQSVLYCSRNKNSVA | WANTRES | QQYHRLPLS, the assay gave 1.37, 1.61, 1.58 (mean 1.52; controls 2 of 9).
For KYSQSVLYESRNKNSVA | WASTRES | QQHHRLPLN, the assay gave 1.63, nd, nd (controls 0 of 9).
For KQSQSVLYEFRNKNSVA | WASTRES | QQWHRLPLS, the assay gave 1.80, 1.82, 1.98 (mean 1.87; controls 2 of 9).
For KCSQSVKYESRNKNSVA | WANTRES | QQYHRLPLS, the assay gave 2.39, 2.10, 2.52 (mean 2.34; controls 4 of 9).
For KEVQSVLYESRNKNSVA | WASTRES | QQYHRLPLS, the assay gave nd, 3.34, 1.76 (mean 2.55; controls 0 of 9).
For KCSQSQLYESRNKNSFA | WASTRES | QQYHRLPLS, the assay gave 2.54, 2.68, 3.76 (mean 2.99; controls 3 of 9).
For KPSQSVLYESRNKNSVA | WASTREW | QQYHRLPLP, the assay gave 3.42, 2.41, 3.42 (mean 3.09; controls 2 of 9).
For KMSQSVLYESRNMNSGA | WASTRES | QQYHRLPLS, the assay gave 3.42, 3.57, 3.80 (mean 3.60; controls 3 of 9).
For KRSQMVLYESRNKNSVA | WASARES | QQYHRLPLS, the assay gave 4.31, 3.58, nd (mean 3.95; controls 1 of 9).
For KISPSVLYESFNKNSVA | WASTRES | QQYHRLPLS, the assay gave 4.56, 3.97, 5.22 (mean 4.58; controls 4 of 9).
For KWSQFVLYESRNKNTVA | WASTRES | QQYHRLPLS, the assay gave 5.24, 3.73, 4.78 (mean 4.58; controls 8 of 9).
For KWSISVLYESRNKNSVG | WASTRES | QQYHRLPLS, the assay gave nd, 3.69, 5.55 (mean 4.62; controls 0 of 9).
For KVSQSVYYESRNKNSVA | WASTRES | QQYHRLPLR, the assay gave 5.82, 3.99, nd (mean 4.90; controls 0 of 9).
For KCSQSQLYESRNKNSVR | WASTRES | QQYHRLPLS, the assay gave nd, 5.24, nd (controls 5 of 9).
For KCSQSVLYESRNKNSNA | WASTRES | QQYHGLPLS, the assay gave nd, nd, nd (controls 0 of 9).
For KKSQSVLYESRGKNSVA | WASTRES | QQYHRLPLR, the assay gave nd, nd, nd (controls 0 of 9).
For KPSQSVLYESRNKNSVA | WAETRES | QIYHRLPLS, the assay gave nd, nd, nd (controls 0 of 9).
For KDSQSVLYESRNKNSVM | WASTRES | QQYHRLPLS, the assay gave nd, nd, nd (controls 0 of 9).
For KGSQSVLYESRNKNYVA | WLSTRES | QQYHRLPLS, the assay gave nd, nd, nd (controls 0 of 9).
For KRAQSVLYESRNKNSVA | WASTRES | QQLHRLPLS, the assay gave nd, nd, nd (controls 1 of 9).
For KKSQSVLYESRNKNSVA | WASTTES | QQNHRLPLS, the assay gave nd, nd, nd (controls 1 of 9).
For KHSQSVLYESRNKNSVA | WASRRES | QQYHRLPHS, the assay gave nd, nd, nd (controls 0 of 9).
For KLSQSVLYESRNKNSVA | WASTRPS | QQYHRLFLS, the assay gave nd, nd, nd (controls 0 of 9).
For KKSQSVLYESRNKLSVE | WASTRES | QQYHRLPLS, the assay gave nd, nd, nd (controls 2 of 9).

For reference, 4 entries of the list once more:

KCSQSQLYESRNKNSVR | WASTRES | QQYHRLPLS: nd, 5.24, nd (controls 5 of 9).
KHSQSVLYESRNKNSVA | WASRRES | QQYHRLPHS: nd, nd, nd (controls 0 of 9).
KCSQSVKYESRNKNSVA | WANTRES | QQYHRLPLS: 2.39, 2.10, 2.52 (mean 2.34; controls 4 of 9).
KWSQFVLYESRNKNTVA | WASTRES | QQYHRLPLS: 5.24, 3.73, 4.78 (mean 4.58; controls 8 of 9).

Nonspecific signal, from three strains lacking the peptide, appeared in 18% of pairings of library AAYL50, centred on 4.19 (5% of these signals below 2.99); values are not corrected for it. Also given: how often the same scFv was detected with the empty control strains.
For reference, the parent read 0.65 as the reference entry and 1.68 as a member of this library.